Values of other authors as cited in patent publication US20060292186A1, “Self-nanoemulsifying oily formulation for the administration of poorly water-soluble drugs” (Novagali Pharma SA, priority 2003, published 2006).

Conditions: cited from earlier work

Substance | rodent oral DL50 compared with Cremophor EL
D-α-tocopheryl polyethylene glycol succinate 1000 [TPGS] | lower
oxyethylated tert-octylphenol formaldehyde polymer [tyloxapol] | lower
